Binding of CDR-mutated scFvs to a peptide of the spike HR2 region

The measurements come from Engelhart et al. 2022 (doi:10.1038/s41597-022-01779-4) through the FLAb antibody collection.

Target: peptide PDVDLGDISGINAS, taken from heptad repeat 2 (HR2) of SARS-CoV-2 spike.

Parent scFv Ab-14: VH joined to VL by three GGGGS repeats. Changes lie in the heavy chain CDRs alone.
VH: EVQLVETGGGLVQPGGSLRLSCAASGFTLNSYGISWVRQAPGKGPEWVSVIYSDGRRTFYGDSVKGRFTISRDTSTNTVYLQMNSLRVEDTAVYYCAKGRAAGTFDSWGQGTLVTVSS
VL: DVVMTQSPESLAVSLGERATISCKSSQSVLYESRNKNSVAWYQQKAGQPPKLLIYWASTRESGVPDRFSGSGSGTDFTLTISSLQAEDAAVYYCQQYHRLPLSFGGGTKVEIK

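The starting antibody came from a phage panning campaign against this peptide. Variants in AAYL49 differ from the parent at up to three CDR positions; double and triple changes were sampled at random. Affinity was read by AlphaSeq, a pooled yeast mating assay with surface-displayed partners. Mating (16 h, 30 °C) was followed by selection of diploids and sequencing of their barcodes. Each replicate has its own calibration line, from reference interactions of the BCL2 family. The assay was run in three technical replicates.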

Substitutions are numbered in sequence along the VH above, starting at 1 (not Kabat).
All variants listed here change V50 of the VH, counted from its first residue.
Numbers give log10(Kd / nM), so 0 is 1 nM and 3 is 1 µM. Smaller is tighter.
A mean of the replicates is given; it leaves out those without a signal.
"no signal" means that the variant was in the library but no mating with the target was seen in any replicate; the authors take this as a sign of poor binding, and no number exists.
Background: pairings of library AAYL49 with three empty control strains gave a value in 15% of cases (median 4.06, 5th percentile 2.83). Values in that range, when seen in few replicates, are hard to tell from nonspecific mating.

Variant G26A S31M V50Q showed no signal (0 of 3 replicates).
Variant V50Q T58S A101L showed 4.03 (2 of 3 replicates).
Variant N30D V50Y V64C showed no signal (0 of 3 replicates).
Variant V50E K65Q T104Q showed no signal (0 of 3 replicates).
Variant F27P V50T I51P showed no signal (0 of 3 replicates).
Variant V50G R56D A101V showed 3.73 (2 of 3 replicates).
Variant V50L showed 4.38 (2 of 3 replicates).
Variant V50F I51G A101E showed no signal (0 of 3 replicates).
Variant V50I I51L D106T showed 4.55 (3 of 3 replicates).
Variant V50F D54H V64E showed no signal (0 of 3 replicates).
Variant G33V V50T Y60P showed no signal (0 of 3 replicates).
Variant V50Q V64G showed no signal (0 of 3 replicates).
Variant V50R G55E T104C showed no signal (0 of 3 replicates).
Variant L29T V50S D106S showed no signal (0 of 3 replicates).
Variant V50W F59T K65Y showed no signal (0 of 3 replicates).
Variant F27G G33M V50D showed no signal (0 of 3 replicates).
Variant Y32S V50E G99R showed no signal (0 of 3 replicates).
Variant V50W R57A T104C showed 4.70 (3 of 3 replicates).
Variant G33D V50C showed 3.89 (1 of 3 replicates).
Variant T28M V50R A101M showed 4.71 (1 of 3 replicates).
Variant V50N V64R G103F showed no signal (0 of 3 replicates).
Variant L29F I34K V50Q showed 4.32 (2 of 3 replicates).
Variant V50D G61N showed no signal (0 of 3 replicates).
Variant G26H V50I R100N showed 1.98 (1 of 3 replicates).
Variant V50F R56T G103S showed 4.44 (1 of 3 replicates).
Variant V50G G61N A102H showed 5.11 (2 of 3 replicates).
Variant S31H V50Y T104Q showed 3.87 (2 of 3 replicates).
Variant V50C A102K showed 5.25 (1 of 3 replicates).
Variant V50C G61E showed no signal (0 of 3 replicates).
Variant V50H R57V V64D showed no signal (0 of 3 replicates).
Variant T28V V50Q K65A showed 4.08 (3 of 3 replicates).
Variant G26P V50Q showed no signal (0 of 3 replicates).
Variant V50P G103Y showed no signal (0 of 3 replicates).
Variant F27A V50F D62P showed 3.59 (1 of 3 replicates).

A selection of 5 entries from above:

{"changes": "V50Q V64G", "mean log10 Kd (nM)": "no signal", "replicates with signal": "0 of 3"}
{"changes": "V50W R57A T104C", "mean log10 Kd (nM)": "4.70", "replicates with signal": "3 of 3"}
{"changes": "V50H R57V V64D", "mean log10 Kd (nM)": "no signal", "replicates with signal": "0 of 3"}
{"changes": "V50Q T58S A101L", "mean log10 Kd (nM)": "4.03", "replicates with signal": "2 of 3"}
{"changes": "S31H V50Y T104Q", "mean log10 Kd (nM)": "3.87", "replicates with signal": "2 of 3"}